Test results reported in ChEMBL document CHEMBL3045250 (Med Chem Res, 2005).

Chains of the proteins cited; added tags and fusions are not shown.
UniProt P50406, whole entry: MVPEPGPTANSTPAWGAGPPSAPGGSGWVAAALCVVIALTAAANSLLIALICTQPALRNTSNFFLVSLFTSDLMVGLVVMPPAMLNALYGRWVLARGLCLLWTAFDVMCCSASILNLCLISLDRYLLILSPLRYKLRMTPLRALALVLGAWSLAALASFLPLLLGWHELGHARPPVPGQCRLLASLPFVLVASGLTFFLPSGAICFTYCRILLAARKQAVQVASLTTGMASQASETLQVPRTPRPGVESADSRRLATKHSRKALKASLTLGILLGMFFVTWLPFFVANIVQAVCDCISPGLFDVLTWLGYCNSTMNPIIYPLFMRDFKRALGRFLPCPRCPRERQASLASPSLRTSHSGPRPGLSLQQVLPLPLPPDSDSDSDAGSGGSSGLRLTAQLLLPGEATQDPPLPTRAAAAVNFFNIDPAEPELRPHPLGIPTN

Molecular target: 5-hydroxytryptamine receptor 6 (Homo sapiens, UniProt P50406)
Assay: Binding affinity to Homo sapiens (human) 5-HT6 receptor

COc1ccc2[nH]cc(CCN(C)C)c2c1 [MEBUFOTENIN]
Ki: 70 nM
